Data as given in PubChem BioAssay AID1224817 (Yan Lab, Georgia Cancer Center, Augusta University, 2016).
The entries are a selection whose mix differs from that of the whole data set. Some results for these compounds are left out of this collection, so the calls shown say nothing about other tests. The source made the active and inactive calls.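 How the source made its calls: active means log2 luciferase ratio at or below -0.5849, meaning signal at two thirds of solvent-only control or lower; inactive means the rest.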

Test: inhibitors of EIF4E gene expression, primary screen, cell-based, HT1080, luciferase reporter (AID 1224817);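 further: luciferase reports endogenous eIF4E expression since it is co-expressed from the native EIF4E locus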
Conditions: HT1080 EIF4E-luc2 knock-in reporter, 16 h, at 2.5 µM, hits give low values

| Compound | log2 luciferase activity ratio |
| --- | --- |
| C=C(C)C#CC(O)(C(=O)OC1CCN(C)CC1)c1ccccc1 (configuration not stated) | inactive: -0.166 |
| CN1CCCC(OC(=O)C(O)(c2ccccc2)C2CCCC2)C1 (configuration not stated) | inactive: -0.121 |
